# Where two headings read alike, the source gives them in different places. Ends that are not written are not given here.
# Legend:
# [1] = system: E. coli stress response genes (strain MG1655); assay: Relative gene expression of stress response genes by quantitative real-time PCR; type: cell-based, Escherichia coli
# Method: Preparation of each of the six treatments and the control samples was carried out by two operators on three consecutive days, thereby comprising three biological replicates for each of the six experimental and one control groups. To obtain the starting material for the experiment, a fresh bacterial culture was grown from a glycerol stock on Mueller-Hinton (MH) agar plates at 37°C for 18–24 hours. One well-isolated colony per biological replicate was used to inoculate 2 ml of liquid MH (Sigma) in a 10 ml sterile polypropylene tube and incubated at 37°C for 16 hours with mild shaking. The overnight (ON) culture was then diluted 1∶100 in MH, subdivided into seven 10 ml aliquots and incubated in 50 ml-Falcon tubes at 37°C for 2.5 hours at 220 rpm. When the OD600 of bacterial cultures reached 0.5–0.7, respective antibiotics and AMPs were added to a concentration to match with those used in the mutagenesis experiments. These bacterial cultures were incubated for 20 minutes at 37°C with gentle shaking. Two ml of bacterial cultures from each treatment and the control were collected, immediately centrifuged at 10000 g for 2 minutes and the supernatant was removed to stop the treatment. The bacterial pellet was then resuspended in 1 ml MH, followed by an addition of 1 ml of RNAprotect Bacteria Reagent (Qiagen), 5 minutes incubation and centrifugation at 10000 g for 2 minutes at room temperature. The supernatant was discarded and the bacterial pellet was immediately frozen and stored at −80°C until RNA extraction.
# Total RNA was isolated using RNeasy kit (Qiagen) according to the manufacturer's instructions and eluted in 50 µl of RNase-free water. The nucleic acid yield and purity were determined by measuring the optical density at A260/280 using a Nanodrop spectrophotometer (Thermo Scientific). RNA samples were treated with TURBO DNase (Life Technologies). Briefly, ten µg of RNA were used in a total volume of 500 µl containing 20 units of TURBO DNase, incubated for 30 minutes at 37°C, immediately followed by RNeasy (Qiagen) cleanup and elution in 30 µl of RNase-free water. Following DNase treatment, RNA integrity was assessed using Agilent RNA 6000 Nano kit and 2100 Bioanalyzer instrument (both Agilent Technologies).
# High-Capacity cDNA Reverse Transcription Kit with RNase Inhibitor (Applied Biosystems) was used for cDNA synthesis. Initially, to ensure linear conversion of the transcripts, the dynamic range of reverse transcription reaction was tested by performing a standard curve with cDNA, synthesised using various input amounts of pooled RNA. Total RNA (250 ng per reaction) and random primers were used for cDNA synthesis. To obtain sufficient amount of cDNA, several batches of 20 µl RT reactions were pooled, diluted 50-fold with RNase-free water and stored in single-use aliquots at −80°C until further use. All 21 samples were tested for presence of contaminating genomic DNA by running the mdoG assay with cDNA and the respective no reverse transcription (−RT) controls.
# Escherichia coli strain K-12 substrain MG1655 complete genome (accession U00096) sequence was downloaded from NCBI database (www.ncbi.nlm.nih.gov) and used for primer design. Target sequence accession number, location of the amplicon, amplicon length and primer sequences for each assay can be found in table S2. Primers were designed using Primer Express software (Applied Biosystems) and optimized for annealing temperature of 60°C. Each primer pair and amplicon were checked for secondary structure formation using Oligo Tool (Integrated DNA technologies, http://eu.idtdna.com/analyzer/Applications/OligoAnalyzer/).
# [2] = system: E. coli MG1655; type: cell-based, Escherichia coli; conditions: 4 hours
# [3] = qPCR, 20 minutes exposure vs non-treated bacteria, REST 2009 randomisation test
Compound,"Result, recA [1, 3]","Result, rpoS [1, 3]","Result, umuC [1, 3]","MIC50 ([2]; 50% reduction of CFUs vs control, Mueller Hinton Broth, 37°C, five replicates, repeated twice) [µg/mL]",MIC50 ([2]; unit as printed in legend of Figure 1) [µg],"fold upregulation, marR [1] [fold]","fold upregulation, phoP [1] [fold]","fold upregulation, phoQ [1] [fold]"
CC1(C)S[C@@H]2[C@H](NC(=O)[C@H](N)c3ccccc3)C(=O)N2[C@H]1C(=O)O [Ampicillin],NDE,UP (1.3-fold),UP (1.37-fold),,,,,
GIGKFLKKAKKFGKAFVKILKK-NH2 (C-terminus assumed) [Pexiganan],,,,1.6,1.6,4.05,3.07,2.45

# Source: publication PMC4192597, “Antimicrobials, Stress and Mutagenesis” (PLoS Pathogens, 2014)
